Paper PMC6512341 (ACS chemical neuroscience, 2018)

Assay: Pilot brain and plasma pharmacokinetic studies of SW-100
Type: in vivo, C57BL/6 male mice
Conditions: male, C57BL/6, mouse, ip, 20 mg/kg

O=C(NO)c1ccc(CN2CCCc3cc(Cl)ccc32)cc1 [SW-100, 4-((6-Chloro-3,4-dihydroquinolin-1(2H)-yl)methyl)-N-hydroxybenzamide]
Kp at 4 h: 4.54
